Reference: patent US20090304746A1 (priority 1993, published 2009)
Like-named read-outs stand apart in the source and are kept apart here.

Chains of the proteins cited; added tags and fusions are not shown. Lines headed by an entry give the natural chain unless they say otherwise; changes in a name come on top. Residues count along the entry.
UniProt P01889, 25-362: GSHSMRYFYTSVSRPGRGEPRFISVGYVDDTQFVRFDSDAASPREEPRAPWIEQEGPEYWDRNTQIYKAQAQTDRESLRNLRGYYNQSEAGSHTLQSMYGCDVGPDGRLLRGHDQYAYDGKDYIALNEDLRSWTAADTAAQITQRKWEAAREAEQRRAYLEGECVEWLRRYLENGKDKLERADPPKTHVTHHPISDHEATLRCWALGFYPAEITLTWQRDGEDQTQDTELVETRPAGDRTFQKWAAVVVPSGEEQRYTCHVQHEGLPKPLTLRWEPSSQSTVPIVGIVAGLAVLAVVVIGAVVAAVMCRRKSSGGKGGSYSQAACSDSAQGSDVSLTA

Legend:
[1] = biological target: HLA-B51; assay: HLA class I binding assay, B51; design: species or system human
[2] = tested on: A3-supertype molecules (A*03, A*11, A*3101, A*3301, A*6801); assay: A3-supertype cross-reactive binding, five molecules; design: species or system human; conditions: number of A3-supertype molecules bound (cross-reactivity)
[3] = tested on: HLA-A11/K^b transgenic mice; assay: CTL induction in HLA-A11/K^b transgenic mice after peptide immunization; type: in vivo, mouse
[4] = biological target: T1, HLA-B*0702 (Homo sapiens, UniProt P01889); assay: HLA class I binding assay, B*0702
T1 construct: endogenous in cells; host or cells: GM3107

[5] = biological target: HLA-B*5401 (Homo sapiens, UniProt P01889, A329T/C349S/D138N/D201E/E176V/E187T/E204Q/E69G/I76V/K202T/L119W/R155S/R180L/S121T/S35A/S48A/V127L/V306I/V36M/Y140L); assay: HLA class I binding assay, B*5401
[6] = biological target: HLA-B*3501 (Homo sapiens, UniProt P01889, A329T/A93T/A95T/C349S/D201E/D98Y/E176V/E187L/E204Q/E69T/I218V/K202T/L119I/Q94N/R155S/R180L/S121R/S35A/S48A/T118I/V127L/V306I/V36M/Y140S/Y91F); assay: HLA class I binding assay, B*3501
[7] = biological target: HLA-B*5301 (Homo sapiens, UniProt P01889, A329T/A93T/A95T/C349S/D201E/D98Y/E176V/E187L/E204Q/E69T/G107R/I218V/K202T/L105A/L119I/N104I/Q94N/R106L/R155S/R180L/S101N/S121R/S35A/S48A/T118I/V127L/V306I/V36M/Y140S/Y91F); assay: HLA class I binding assay, B*5301
[8] = A3 supermotif peptides, spread in brackets
[9] = HLA-A11/K^b transgenic mice, average magnitude (standard deviation) in positive animals
[10] = HLA-A11/K^b transgenic mice, positive responses over total number of mice examined

## CSCC[C@H](NC(=O)[C@H](CC(C)C)NC(=O)[C@H](CO)NC(=O)[C@H](C)NC(=O)[C@H](CC(C)C)NC(=O)[C@H](C)NC(=O)[C@@H]1CCCN1C(=O)[C@@H](N)CC(N)=O)C(=O)N[C@@H](C)C(=O)N[C@@H](Cc1ccccc1)C(=O)O
[1]
  IC50: 5000 nM

## CC[C@H](C)[C@H](NC(=O)[C@@H](N)CC(C)C)C(=O)N[C@@H](Cc1ccccc1)C(=O)N[C@@H](CS)C(=O)N[C@@H](Cc1c[nH]cn1)C(=O)N[C@@H](CO)C(=O)N[C@@H](CCCCN)C(=O)N[C@@H](CCCCN)C(=O)N[C@@H](CCCCN)C(=O)O [Peptide 1.0123]
[2]
  A3 XRN: 3
[3]; A3 supermotif peptides
  Immunogenicity Transgenic mice, Frequency: 3/6
[3]; [8]
  Immunogenicity Transgenic mice, Response: 4.4 (1.1)
[3]; [9]
  Immunogenicity Transgenic mice, Response: 4.4 (1.1) lytic units
[3]; [10]
  Immunogenicity Transgenic mice, Frequency: 3/6

## C[C@@H](O)[C@H](NC(=O)[C@@H](N)CCCCN)C(=O)N[C@@H](CO)C(=O)N[C@@H](CCC(=O)O)C(=O)N[C@@H](CCCNC(=N)N)C(=O)N[C@@H](CO)C(=O)N[C@@H](CCC(N)=O)C(=O)N1CCC[C@H]1C(=O)N[C@@H](CCCNC(=N)N)C(=O)O [Peptide 1.0952]
[2]
  A3 XRN: 4

## CC[C@H](C)[C@H](NC(=O)[C@@H]1CCCN1C(=O)[C@H](CCC(N)=O)NC(=O)[C@H](CCCNC(=N)N)NC(=O)[C@H](CCCNC(=N)N)NC(=O)CNC(=O)[C@H](CCCNC(=N)N)NC(=O)[C@@H]1CCCN1C(=O)[C@@H](N)CCC(N)=O)C(=O)O [Peptide 15.0039]
[1]
  IC50: > 30000 nM

## CC(C)C[C@H](NC(=O)[C@@H](NC(=O)[C@@H](NC(=O)[C@H](Cc1ccccc1)NC(=O)[C@H](CO)NC(=O)[C@H](CS)NC(=O)[C@@H]1CCCN1C(=O)[C@@H](N)CC(C)C)[C@@H](C)O)[C@@H](C)O)C(=O)N1CCC[C@H]1C(=O)N[C@@H](C)C(=O)O [Peptide 16.0187]
[1]
  IC50: 9170 nM

## CC(C)C[C@H](NC(=O)[C@H](C)NC(=O)CNC(=O)[C@H](C)NC(=O)[C@@H](N)C(C)C)C(=O)N[C@H](C(=O)N[C@@H](C)C(=O)N[C@@H](Cc1ccccc1)C(=O)N[C@@H](CCCCN)C(=O)O)C(C)C [Peptide 24.0090]
[2]
  A3 XRN: 3
[3]; A3 supermotif peptides
  Immunogenicity Transgenic mice, Frequency: 1/6
[3]; [8]
  Immunogenicity Transgenic mice, Response: 7.1
[3]; [9]
  Immunogenicity Transgenic mice, Response: 7.1 lytic units
[3]; [10]
  Immunogenicity Transgenic mice, Frequency: 1/6

## C[C@H](N)C(=O)N[C@@H](C)C(=O)N[C@@H](CS)C(=O)N[C@@H](CC(N)=O)C(=O)N[C@@H](Cc1c[nH]c2ccccc12)C(=O)N[C@H](C(=O)N[C@@H](CCCNC(=N)N)C(=O)NCC(=O)N[C@@H](CCC(=O)O)C(=O)N[C@@H](CCCNC(=N)N)C(=O)O)[C@@H](C)O [Peptide 24.0103]
[2]
  A3 XRN: 2

## CC[C@H](C)[C@H](NC(=O)[C@@H]1CCCN1C(=O)[C@@H](N)CC(C)C)C(=O)N[C@@H](CC(N)=O)C(=O)N[C@@H](C)C(=O)N[C@@H](CC(C)C)C(=O)N[C@@H](CO)C(=O)N[C@@H](CC(N)=O)C(=O)N[C@@H](CO)C(=O)N[C@@H](CC(C)C)C(=O)O [Peptide 29.0085]
[1]
  IC50: 1170 nM

## CC(C)C[C@H](NC(=O)[C@H](C)NC(=O)CNC(=O)[C@H](C)NC(=O)[C@@H](NC(=O)CN)C(C)C)C(=O)N[C@H](C(=O)N[C@@H](C)C(=O)N[C@@H](Cc1ccccc1)C(=O)N[C@@H](CCCCN)C(=O)O)C(C)C [Peptide 1073.10]
[2]
  A3 XRN: 3

## CC(C)C[C@H](NC(=O)[C@@H](N)CCCNC(=N)N)C(=O)NCC(=O)N[C@H](C(=O)N[C@@H](CCCNC(=N)N)C(=O)N[C@@H](C)C(=O)N[C@H](C(=O)N[C@@H](CCCNC(=N)N)C(=O)N[C@@H](CCCCN)C(=O)O)[C@@H](C)O)C(C)C [Peptide 1073.11]
[3]; A3 supermotif peptides
  Immunogenicity Transgenic mice, Frequency: 3/6
[3]; [8]
  Immunogenicity Transgenic mice, Response: 42.2 (1.2)
[3]; [9]
  Immunogenicity Transgenic mice, Response: 42.2 (1.2) lytic units
[3]; [10]
  Immunogenicity Transgenic mice, Frequency: 3/6

## CSCC[C@H](NC(=O)[C@H](Cc1ccc(O)cc1)NC(=O)[C@H](C)NC(=O)CNC(=O)[C@H](Cc1ccccc1)NC(=O)CNC(=O)[C@H](CC(C)C)NC(=O)[C@@H](N)[C@@H](C)O)C(=O)N[C@@H](CO)C(=O)N[C@@H](CCCCN)C(=O)O [Peptide 1073.14]
[2]
  A3 XRN: 2

## CC(C)C[C@H](NC(=O)[C@@H](N)Cc1c[nH]cn1)C(=O)N[C@@H](Cc1c[nH]cn1)C(=O)N[C@@H](C)C(=O)N1CCC[C@H]1C(=O)N[C@H](C(=O)NCC(=O)N[C@@H](CO)C(=O)NCC(=O)N[C@@H](CCCCN)C(=O)O)[C@@H](C)O [Peptide 1073.16]
[2]
  A3 XRN: 1

## CC(C)[C@H](NC(=O)CNC(=O)[C@H](CCCNC(=N)N)NC(=O)[C@@H](NC(=O)[C@H](CS)NC(=O)[C@@H](NC(=O)[C@H](C)N)C(C)C)[C@@H](C)O)C(=O)N[C@@H](C)C(=O)N[C@@H](CCCCN)C(=O)O [Peptide 1090.23]
[2]
  A3 XRN: 2

## CC(C)[C@H](NC(=O)[C@H](CS)NC(=O)[C@H](Cc1ccccc1)NC(=O)[C@@H](NC(=O)[C@@H](N)CCC(=O)O)C(C)C)C(=O)N[C@@H](CCC(N)=O)C(=O)N1CCC[C@H]1C(=O)N[C@@H](CCC(=O)O)C(=O)N[C@@H](CCCCN)C(=O)O [Peptide 1090.24]
[2]
  A3 XRN: 2

## CSCC[C@H](NC(=O)[C@@H](N)Cc1c[nH]c2ccccc12)C(=O)N[C@@H](CC(N)=O)C(=O)N[C@@H](CO)C(=O)N[C@H](C(=O)NCC(=O)N[C@@H](Cc1ccccc1)C(=O)N[C@H](C(=O)N[C@@H](CCCCN)C(=O)O)[C@@H](C)O)[C@@H](C)O [Peptide 1174.16]
[2]
  A3 XRN: 2

## CC(C)C[C@H](NC(=O)[C@@H]1CCCN1C(=O)[C@H](CS)NC(=O)CNC(=O)[C@H](Cc1c[nH]cn1)NC(=O)[C@@H](NC(=O)[C@@H](NC(=O)[C@@H]1CCCN1C(=O)[C@@H]1CCCN1)C(C)C)C(C)C)C(=O)O [Peptide 1292.17]
[1]
  IC50: > 30000 nM

## LPRRGPRLGV
[1]
  B*5101 (Binding Information): 0.0009

## LPVCQDHLEF
[4]
  B*0702 (Binding Information): 0.0001
[1]
  B*5101 (Binding Information): 0.0002
[5]
  B*5401 (Binding Information): 0.0003

## QPEKGGRKPA
[6]
  B*3501 (Binding Information): 0.0001
[1]
  B*5101 (Binding Information): 0.0001
[7]
  B*5301 (Binding Information): 0.0002

## SPGALVVGVV
[6]
  B*3501 (Binding Information): 0.0001
[7]
  B*5301 (Binding Information): 0.0001
[5]
  B*5401 (Binding Information): 0.0003

## TPCTCGSSDL
[1]; HCV B07 supermotif peptides, binding value, no unit or definition in the table
  B*5101 (Binding Information): 0.0002

## TPLLYRLGAV
[4]
  B*0702 (Binding Information): 0.0120
[6]
  B*3501 (Binding Information): 0.0001
[1]
  B*5101 (Binding Information): 0.0008
[7]
  B*5301 (Binding Information): 0.0001
[5]
  B*5401 (Binding Information): 0.0110
